The term IC50 denotes the concentration that inhibits the measured activity by half.

For the test, the system named is KYSE-150 esophageal carcinoma cell line. Nature of the test: Cell proliferation assay via BrdU incorporation (ELISA). The settings on record: KYSE-150 cells, BrdU incorporation after 168 hr compound incubation; read-out: Cellular IC50. Format: cell-based, human.

Regarding “3-{[(6-chloro-1-hydroxy-1,2,3,4-tetrahydronaphthalen-1- yl)methyl]amino}pyridine-4-carboxylic acid [Example 67]”, the IC50 was 1 to 10 µM.
